Measured values reported in patent publication US4162316A (priority 1975, dated 1979).

Experiment: Solubility remark in the D'Amour-Smith s.c. test
Details: Table 2; s.c. column

| Structure (SMILES) | Insoluble (solubility for s.c. administration) |
| --- | --- |
| Oc1cccc(CC(c2ccccc2)N2CCN(c3cccc(O)c3)CC2)c1 (racemic) | Insoluble |
| COc1ccccc1N1CCN(C(Cc2cccc(Cl)c2)c2ccccc2)CC1 (racemic) | Insoluble |
